## Yeast mating assay 2: variants of the scFv Ab-95

The target is the same throughout: PDVDLGDISGINAS, from the HR2 region of SARS-CoV-2 spike.

The variants keep the heavy chain, the linker and the frameworks of Ab-95 (scFv order VH, the linker GGGGSGGGGSGGGGS, VL).
VH: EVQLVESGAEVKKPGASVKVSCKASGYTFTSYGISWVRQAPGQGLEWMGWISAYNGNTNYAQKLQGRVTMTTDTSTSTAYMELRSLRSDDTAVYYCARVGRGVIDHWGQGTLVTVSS
VL: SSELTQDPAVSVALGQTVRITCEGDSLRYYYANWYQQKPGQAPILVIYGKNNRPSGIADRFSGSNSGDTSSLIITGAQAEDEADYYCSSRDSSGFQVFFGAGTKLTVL

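The starting antibody came from a phage panning campaign against this peptide. In library AAYL52, one, two or three CDR residues were substituted; doubles and triples were drawn at random. The assay is AlphaSeq: two haploid yeast populations carry antibody and antigen on their surface. The frequency of each diploid, read from paired DNA barcodes, reflects how well the two displayed proteins bind. Read counts were normalised to the haploid input and turned into Kd by a linear fit to BCL2-family pairs of known affinity, for each replicate. Mating was done three times.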

The parent's light chain CDRs are EGDSLRYYYAN, GKNNRPS, SSRDSSGFQVF; each variant's own CDRs replace them letter for letter. This list gathers variants with a substitution at R28 (VL, numbered from residue 1). Numbers give log10(Kd / nM), so 0 is 1 nM and 3 is 1 µM. Smaller is tighter. The mean shown is taken over the replicates in which the pair was detected. "no signal" means that the variant was in the library but no mating with the target was seen in any replicate; the authors take this as a sign of poor binding, and no number exists. As a blank, each scFv also met three strains without target: over library AAYL52, 28% of these pairings were detected, typically at 3.91 and seldom below 2.90. The control count says in how many pairings with the empty strains this scFv gave a signal.

For EGVSLGYYYKN | GKNNRPS | SSRDSSGFQVF, the assay gave 4.57 (3 of 3 replicates; controls 2 of 9). With EGDSLNYYYAN | GVNNRPS | SSRDSQGFQVF the result was 2.90 (3 of 3 replicates; controls 3 of 9). For EGDSLLYYYAN | GKYNRPS | SSDDSSGFQVF, the assay gave no signal (0 of 3 replicates; controls 2 of 9). For EGDSLYYYYAN | GKNNAPG | SSRDSSGFQVF, the assay gave 4.41 (2 of 3 replicates; controls 5 of 9). The variant EGDSLMYPYAM | GKNNRPS | SSRDSSGFQVF gave 4.17 (2 of 3 replicates; controls 4 of 9). For EGDSLHTYYAN | GKNNRPS | SSRDSSGFQGF, the assay gave 2.73 (2 of 3 replicates; controls 1 of 9). The variant EGDSLNYYYAN | GKNKRPS | SSRDTSGFQVF showed 3.19 (3 of 3 replicates; controls 2 of 9). For EGDSLWYYYAN | GKNNRPS | SSRDSSGFQVY, the assay gave 2.64 (3 of 3 replicates; controls 2 of 9).

With EGHSLKYYYKN | GKNNRPS | SSRDSSGFQVF the result was no signal (0 of 3 replicates; controls 2 of 9). For EGDSLQYYYAN | GKNNEPS | SSRDSSGFQVF, the assay gave 3.76 (3 of 3 replicates; controls 3 of 9). For EGDSLDYYYAN | GKCNRAS | SSRDSSGFQVF, the assay gave 3.25 (1 of 3 replicates; controls 2 of 9). For EGDSLIYYYAN | GKNNRPS | SSRDSPGFVVF, the assay gave 4.54 (2 of 3 replicates; controls 1 of 9). For EGDSLQYYYAN | GKNNRPS | SARDSSGFQVF, the assay gave 1.62 (3 of 3 replicates; controls 1 of 9). The variant EFDSLMYYYAN | GKNRRPS | SSRDSSGFQVF showed 2.96 (3 of 3 replicates; controls 2 of 9). The variant EGDSLTYYYAN | GKNNRPS | VSRDSGGFQVF gave 3.07 (2 of 3 replicates; controls 0 of 9). With EGKSLFYYLAN | GKNNRPS | SSRDSSGFQVF the result was 3.40 (3 of 3 replicates; controls 0 of 9).

For EGDSPFYYYAN | GKNNRPS | SSRDSSGFQPF, the assay gave 4.16 (1 of 3 replicates; controls 5 of 9). The variant EGDSLPYYYAN | GKNNRPS | SSRDSSGFQVF gave 1.75 (3 of 3 replicates; controls 2 of 9). The variant EGDSLKYYYAN | GDNNRPS | SSRDSSGFQTF gave 2.24 (3 of 3 replicates; controls 3 of 9). With EWDSLKYYYAN | GKNNRPS | SSRDSSGWQVF the result was 3.12 (1 of 3 replicates; controls 2 of 9). The variant EGDSLLYYYFN | GKNNRPS | SSRDSSGFQVF showed 4.21 (1 of 3 replicates; controls 3 of 9). For EGDSLIYYYAN | GKNNRPP | SSRDSSGHQVF, the assay gave 3.64 (3 of 3 replicates; controls 2 of 9). The variant EGDSLTWYYAN | GKNNRPS | SSRDSAGFQVF showed 3.84 (2 of 3 replicates; controls 4 of 9). The variant EGDSLWYYYLN | GKNNRPS | SSRDSSGFQPF gave 3.39 (2 of 3 replicates; controls 5 of 9).

For EGDSLPYYYAN | LKNNRPS | SSRGSSGFQVF, the assay gave 4.99 (1 of 3 replicates; controls 1 of 9). For CGDSLAYYYAN | GKNNRPS | NSRDSSGFQVF, the assay gave 2.95 (2 of 3 replicates; controls 2 of 9). With EGDSLCYYFAN | GKNNRPS | SERDSSGFQVF the result was 4.55 (1 of 3 replicates; controls 5 of 9). For EGDSLNYYYAN | GKNNRQH | SSRDSSGFQVF, the assay gave 3.52 (3 of 3 replicates; controls 1 of 9). The variant EGDSLYYYYAN | GKNNRPS | WSRDSSGFQVF gave 2.47 (3 of 3 replicates; controls 4 of 9). For EGDSLMYYYPN | GKNNRPS | SSRDASGFQVF, the assay gave 1.72 (3 of 3 replicates; controls 3 of 9). The variant RGDSLCYYYAA | GKNNRPS | SSRDSSGFQVF gave 3.16 (3 of 3 replicates; controls 2 of 9). The variant VGDSLLYYYAN | GKNNRPS | SSRDTSGFQVF gave 2.89 (3 of 3 replicates; controls 2 of 9).

The variant EGDSLSYYYAN | GKNNRPS | YSRDSSGFQVF showed no signal (0 of 3 replicates; controls 3 of 9). For EGDSLFYYYAN | GKNNCPS | SSRDSSGEQVF, the assay gave no signal (0 of 3 replicates; controls 1 of 9). For EGDSLIYYYAN | GKNNIPS | SSRDSSGFQVF, the assay gave 3.76 (3 of 3 replicates; controls 1 of 9). For EGDSLYYYYAD | FKNNRPS | SSRDSSGFQVF, the assay gave 4.47 (2 of 3 replicates; controls 6 of 9). With EWDSLAYYYAN | GKNNRPS | PSRDSSGFQVF the result was 3.38 (1 of 3 replicates; controls 4 of 9). With EGDCLTYYYAN | GKNNRPS | SSRDSSGFQVA the result was 2.82 (2 of 3 replicates; controls 1 of 9). The variant EGDSLWYDYAN | GKNSRPS | SSRDSSGFQVF showed 2.81 (3 of 3 replicates; controls 4 of 9). The variant EGDSLPYYYAN | GKNNRPS | SSRDSSCTQVF gave 2.60 (2 of 3 replicates; controls 4 of 9).

With EGDSLFYYYAN | GKNNRPS | SMRDVSGFQVF the result was 3.15 (3 of 3 replicates; controls 4 of 9). The variant EGDSLSYYEAN | GKNNRPI | SSRDSSGFQVF gave 1.82 (3 of 3 replicates; controls 1 of 9). For EGDSLLYYYAN | GKKNRPS | SSRDSSGFQVF, the assay gave 4.43 (3 of 3 replicates; controls 3 of 9). With EGDSLVEYYAN | GKNNRPS | SSRDSKGFQVF the result was 4.04 (2 of 3 replicates; controls 4 of 9). The variant EIDSLQYYYAN | GKNNRPS | SSRDSSGFQVF showed 3.04 (2 of 3 replicates; controls 1 of 9). The variant EGDSLPYYYAN | GKNDRPS | SSRDSVGFQVF gave no signal (0 of 3 replicates; controls 1 of 9). With EGDSLLYYYAN | GKNNRPS | SSCDSSGFMVF the result was 4.18 (2 of 3 replicates; controls 5 of 9).

The first 2 entries again:

{"CDR-L1": "EGVSLGYYYKN", "CDR-L2": "GKNNRPS", "CDR-L3": "SSRDSSGFQVF", "mean, log10 nM": "4.57", "seen in": "3/3", "empty controls": "2/9"}
{"CDR-L1": "EGDSLNYYYAN", "CDR-L2": "GVNNRPS", "CDR-L3": "SSRDSQGFQVF", "mean, log10 nM": "2.90", "seen in": "3/3", "empty controls": "3/9"}

Source: Engelhart et al. 2022 (doi:10.1038/s41597-022-01779-4), MIT Lincoln Laboratory and A-Alpha Bio; data file from the FLAb repository.